One data set concerns the target Nav 1.5 (Homo sapiens (Human), UniProt Q14524). As to the kind of experiment: Nav 1.5 in vitro PX assay (PatchXpress whole cell voltage clamp). Format: cell-based. Conditions: 293 cells stably transfected with Nav 1.5; first part of table. Here is the method:
Nav 1.5 In Vitro PX Assay
293 cells stably transfected with Nav 1.5 were recorded in whole cell voltage clamp mode with the PatchXpress automated electrophysiology system according the manufacturer's specifications (Molecular Devices, LLC, Sunnyvale, Calif.). Cells were held at a holding potential of −50 mV to inactivate sodium channels. To elicit sodium currents the voltage was changed to −120 mV to recover a portion of the channels, followed by delivery of test pulses of 20 msec duration to 0 mV, at 0.1 Hz. A single concentration of test compound was applied to cells for a duration of 5 minutes. Peak sodium current was measured at the end of the compound addition period to determine percent inhibition. A minimum of two cells were tested per concentration. IC50 curves were fitted to percent inhibition as a function of concentration.

The chains behind the UniProt entries cited, without tags or fusion partners.
UniProt Q14524, whole entry: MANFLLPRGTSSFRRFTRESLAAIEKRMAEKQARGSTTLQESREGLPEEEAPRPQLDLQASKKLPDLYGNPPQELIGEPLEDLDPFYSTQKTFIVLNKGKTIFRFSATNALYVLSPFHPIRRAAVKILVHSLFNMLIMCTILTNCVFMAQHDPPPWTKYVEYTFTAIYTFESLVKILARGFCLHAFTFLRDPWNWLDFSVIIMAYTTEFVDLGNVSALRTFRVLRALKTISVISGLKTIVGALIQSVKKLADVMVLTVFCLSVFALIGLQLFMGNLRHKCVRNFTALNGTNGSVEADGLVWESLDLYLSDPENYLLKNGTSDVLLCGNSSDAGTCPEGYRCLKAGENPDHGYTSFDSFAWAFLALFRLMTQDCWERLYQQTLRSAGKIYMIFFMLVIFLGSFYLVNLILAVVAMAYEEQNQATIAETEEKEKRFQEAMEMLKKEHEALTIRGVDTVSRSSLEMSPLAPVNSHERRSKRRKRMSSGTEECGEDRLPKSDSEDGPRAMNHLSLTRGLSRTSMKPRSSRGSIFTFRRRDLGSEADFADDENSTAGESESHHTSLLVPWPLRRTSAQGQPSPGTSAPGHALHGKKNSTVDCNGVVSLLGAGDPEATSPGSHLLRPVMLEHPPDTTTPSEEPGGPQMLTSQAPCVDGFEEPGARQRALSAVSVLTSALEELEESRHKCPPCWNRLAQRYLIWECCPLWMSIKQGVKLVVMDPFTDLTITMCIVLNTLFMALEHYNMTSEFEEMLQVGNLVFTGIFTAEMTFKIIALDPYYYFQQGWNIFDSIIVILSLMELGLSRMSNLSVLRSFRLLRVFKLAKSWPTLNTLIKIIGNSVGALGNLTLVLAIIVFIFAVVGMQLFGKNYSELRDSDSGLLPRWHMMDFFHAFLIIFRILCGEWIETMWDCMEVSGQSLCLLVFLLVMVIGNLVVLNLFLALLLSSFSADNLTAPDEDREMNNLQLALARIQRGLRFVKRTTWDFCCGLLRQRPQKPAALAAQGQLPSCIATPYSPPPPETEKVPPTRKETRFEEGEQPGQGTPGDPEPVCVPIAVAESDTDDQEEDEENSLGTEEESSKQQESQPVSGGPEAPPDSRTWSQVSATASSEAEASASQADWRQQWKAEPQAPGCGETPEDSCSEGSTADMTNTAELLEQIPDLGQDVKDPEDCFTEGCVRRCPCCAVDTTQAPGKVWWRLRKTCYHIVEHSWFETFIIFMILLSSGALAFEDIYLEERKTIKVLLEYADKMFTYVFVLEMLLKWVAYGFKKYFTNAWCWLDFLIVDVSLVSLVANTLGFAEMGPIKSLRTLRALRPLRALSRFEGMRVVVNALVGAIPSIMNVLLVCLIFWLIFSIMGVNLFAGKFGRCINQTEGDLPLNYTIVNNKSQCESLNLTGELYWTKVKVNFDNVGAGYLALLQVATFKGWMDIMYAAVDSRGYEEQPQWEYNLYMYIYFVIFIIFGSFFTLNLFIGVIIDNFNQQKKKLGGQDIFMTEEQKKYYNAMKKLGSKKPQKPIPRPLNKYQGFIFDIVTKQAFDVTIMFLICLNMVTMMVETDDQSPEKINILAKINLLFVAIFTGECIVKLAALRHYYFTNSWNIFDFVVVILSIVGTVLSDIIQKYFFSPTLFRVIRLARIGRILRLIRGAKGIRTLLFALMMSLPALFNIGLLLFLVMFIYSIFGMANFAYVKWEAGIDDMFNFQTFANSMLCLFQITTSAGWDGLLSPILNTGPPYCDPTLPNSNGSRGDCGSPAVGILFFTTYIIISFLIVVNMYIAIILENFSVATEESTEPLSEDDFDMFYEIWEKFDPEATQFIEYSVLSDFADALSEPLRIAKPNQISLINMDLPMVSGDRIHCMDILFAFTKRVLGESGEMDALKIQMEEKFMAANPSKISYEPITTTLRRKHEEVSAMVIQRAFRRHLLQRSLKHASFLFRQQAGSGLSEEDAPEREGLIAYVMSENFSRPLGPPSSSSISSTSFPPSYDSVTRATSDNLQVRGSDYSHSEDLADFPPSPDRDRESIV
UniProt Q15858, whole entry: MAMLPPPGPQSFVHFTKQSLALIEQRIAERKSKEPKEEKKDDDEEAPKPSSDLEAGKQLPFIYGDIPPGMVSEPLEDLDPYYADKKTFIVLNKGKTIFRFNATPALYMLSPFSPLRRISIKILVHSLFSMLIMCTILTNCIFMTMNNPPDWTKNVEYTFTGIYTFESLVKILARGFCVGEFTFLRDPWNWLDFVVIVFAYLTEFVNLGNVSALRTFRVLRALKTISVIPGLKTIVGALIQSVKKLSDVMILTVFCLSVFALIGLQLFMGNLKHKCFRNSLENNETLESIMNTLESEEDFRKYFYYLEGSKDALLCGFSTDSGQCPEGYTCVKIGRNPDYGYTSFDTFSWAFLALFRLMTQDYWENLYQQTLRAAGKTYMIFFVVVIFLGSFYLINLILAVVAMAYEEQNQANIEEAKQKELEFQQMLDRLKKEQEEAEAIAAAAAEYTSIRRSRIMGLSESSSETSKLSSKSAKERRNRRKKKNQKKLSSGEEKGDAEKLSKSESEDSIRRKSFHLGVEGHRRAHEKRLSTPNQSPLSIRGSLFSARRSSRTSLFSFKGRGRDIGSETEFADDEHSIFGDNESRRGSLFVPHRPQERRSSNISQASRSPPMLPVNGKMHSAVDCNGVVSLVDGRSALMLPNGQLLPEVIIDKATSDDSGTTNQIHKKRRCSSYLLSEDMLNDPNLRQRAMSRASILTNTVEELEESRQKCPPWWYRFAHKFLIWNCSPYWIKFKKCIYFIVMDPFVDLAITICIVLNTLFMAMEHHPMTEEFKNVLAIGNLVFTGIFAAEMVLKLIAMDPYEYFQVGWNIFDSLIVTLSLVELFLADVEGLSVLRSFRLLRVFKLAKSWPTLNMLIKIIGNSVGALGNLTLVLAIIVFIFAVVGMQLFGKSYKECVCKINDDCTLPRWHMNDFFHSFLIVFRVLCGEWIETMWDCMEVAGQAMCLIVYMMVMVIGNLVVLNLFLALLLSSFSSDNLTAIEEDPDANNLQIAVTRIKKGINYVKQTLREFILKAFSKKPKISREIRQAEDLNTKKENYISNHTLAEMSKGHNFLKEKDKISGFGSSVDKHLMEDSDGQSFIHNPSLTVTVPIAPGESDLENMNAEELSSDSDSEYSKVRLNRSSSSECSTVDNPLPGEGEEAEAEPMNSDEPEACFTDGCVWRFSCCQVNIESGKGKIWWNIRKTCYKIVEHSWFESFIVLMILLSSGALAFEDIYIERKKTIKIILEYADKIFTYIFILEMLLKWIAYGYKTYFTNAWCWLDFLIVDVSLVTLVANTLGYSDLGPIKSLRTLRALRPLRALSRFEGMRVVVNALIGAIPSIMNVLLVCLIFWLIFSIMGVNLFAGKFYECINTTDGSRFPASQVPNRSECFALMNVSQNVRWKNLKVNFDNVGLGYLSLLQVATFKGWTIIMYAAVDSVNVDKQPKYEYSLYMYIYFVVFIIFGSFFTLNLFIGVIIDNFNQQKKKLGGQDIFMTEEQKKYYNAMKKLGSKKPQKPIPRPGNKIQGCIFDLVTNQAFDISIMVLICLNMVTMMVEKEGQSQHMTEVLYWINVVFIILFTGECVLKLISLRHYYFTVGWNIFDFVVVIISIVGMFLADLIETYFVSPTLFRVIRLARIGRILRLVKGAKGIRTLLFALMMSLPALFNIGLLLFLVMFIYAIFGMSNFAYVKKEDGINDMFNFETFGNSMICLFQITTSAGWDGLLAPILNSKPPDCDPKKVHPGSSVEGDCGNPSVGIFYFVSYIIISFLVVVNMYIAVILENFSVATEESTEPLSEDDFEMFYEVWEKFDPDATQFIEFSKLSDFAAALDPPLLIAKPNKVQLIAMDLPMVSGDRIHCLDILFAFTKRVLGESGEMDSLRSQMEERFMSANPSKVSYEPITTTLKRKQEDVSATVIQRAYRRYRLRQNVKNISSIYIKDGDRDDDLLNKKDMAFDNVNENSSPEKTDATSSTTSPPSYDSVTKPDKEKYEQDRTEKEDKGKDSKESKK

In another data set the target is Nav 1.7 (Homo sapiens (Human), UniProt Q15858). Kind of data set: Nav 1.7 IWQ in vitro assay (IonWorks Quattro population patch-clamp). Format: cell-based. The following applies: 293 cells stably transfected with Nav 1.7; first part of table. The method, then: Nav 1.7 or Nav 1.5 IWQ In Vitro Assay
293 Cells stably transfected with either Nav 1.7 or Nav 1.5 were recorded in population patch-clamp mode with the IonWorks® Quattro automated electrophysiology system in accordance with the manufacturer's specifications (Molecular Devices, LLC, Sunnyvale, Calif.). Sodium channel currents were measured in response to a train of depolarizations that induced successively greater inactivation.
Cells were then left unclamped for a period of 3 to 8 minutes while a single concentration of test compound was added. Cells were then reclamped and put through the same voltage protocol. Current at the end of the 26th pulse to −20 mV was subtracted from the peak current evoked by the 26th pulse to −20 mV to correct for leak current. Percent block was calculated for each concentration in duplicate, and IC50 curves were fitted to percent block as a function of concentration.
In general terms: Patch clamp records ionic current or voltage across a cell membrane.

For orientation: IC50 means the concentration that inhibits the measured activity by half. The low end stands for greater potency in that assay, the high end for weaker potency in that assay.

At Nav 1.5, `Cn1nccc1-c1cc(C(F)(F)F)ccc1-c1cccc2cc(S(=O)(=O)Nc3ncns3)ccc12` [Example 1] returned an IC50 at 5 min of over 30000 nM. At Nav 1.7, this compound gave an IC50 of 30 nM.

Regarding `O=S(=O)(Nc1ncns1)c1ccc2c(-c3ccc(C(F)(F)F)cc3O)cccc2c1` [Example 38], the IC50 amounted to 23100 nM at Nav 1.5 and 490 nM on Nav 1.7.
